Amino acid sequences for entries named in this document (tags omitted).
UniProt P14842, whole entry: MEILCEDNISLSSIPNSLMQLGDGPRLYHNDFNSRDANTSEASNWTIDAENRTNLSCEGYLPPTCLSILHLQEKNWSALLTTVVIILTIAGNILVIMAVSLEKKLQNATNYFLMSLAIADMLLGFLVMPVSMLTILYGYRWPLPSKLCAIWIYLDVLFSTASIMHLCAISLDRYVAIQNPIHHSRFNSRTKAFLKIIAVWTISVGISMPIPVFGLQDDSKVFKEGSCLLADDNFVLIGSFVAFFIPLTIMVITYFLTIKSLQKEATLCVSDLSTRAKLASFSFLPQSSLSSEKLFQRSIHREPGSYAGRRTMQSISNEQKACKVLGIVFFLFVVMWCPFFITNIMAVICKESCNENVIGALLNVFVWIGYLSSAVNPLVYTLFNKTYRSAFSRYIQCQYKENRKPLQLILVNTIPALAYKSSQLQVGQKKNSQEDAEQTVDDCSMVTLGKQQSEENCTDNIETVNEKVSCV

According to BindingDB's records for PubMed 8510008 (Eli Lilly, 1993):

Biological target: 5-hydroxytryptamine receptor 2A (Rattus norvegicus, UniProt P14842)

COc1ccc2[nH]cc(CCN)c2c1 [tryptamine, 5-Methoxy]
Ki: 3.79 µM
